Results on one substance are retold here after patent US12704493B2 (priority 2020, dated 2026).

The test relates to electroactive microorganisms of the biosensor anode.

With chlorine, where the note is “after contamination was cleared, switched back to tap water”, the “recovery of biosensor voltage after return to clean tap water” value is on record as “restored to a constant plateau”. Also, the “change of open circuit voltage of the biosensor” value (chlorine raised from 0.03 mg/L to 3 mg/L over 4 hours in tap water) was “decreased”.
